Our source for the EC50 values is patent publication US20260166016A1, “GPR139 RECEPTOR AGONIST, PREPARATION METHOD THEREFOR, AND APPLICATION THEREOF” (NEUBO APPTECH CO., LTD., priority 2022, published 2026).

The chains behind the UniProt entries cited, without tags or fusion partners.
UniProt Q6DWJ6, whole entry: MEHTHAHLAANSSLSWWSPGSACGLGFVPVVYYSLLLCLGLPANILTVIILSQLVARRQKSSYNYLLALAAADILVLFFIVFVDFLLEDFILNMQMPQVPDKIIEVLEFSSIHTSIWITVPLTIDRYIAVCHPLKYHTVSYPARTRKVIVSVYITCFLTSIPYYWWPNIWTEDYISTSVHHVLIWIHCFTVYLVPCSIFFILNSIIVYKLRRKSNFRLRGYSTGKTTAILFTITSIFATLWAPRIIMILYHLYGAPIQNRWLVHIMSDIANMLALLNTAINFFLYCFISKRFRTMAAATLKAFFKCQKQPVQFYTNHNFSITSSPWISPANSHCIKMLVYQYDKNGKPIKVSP

The structures appear in SMILES notation.

For the experiment, the target named is GPR139 (Homo sapiens, UniProt Q6DWJ6). The experiment is described as follows: GPR139 FLIPR cell calcium signal detection in GPR139-transfected HEK293 cells. The note with it: read-out: EC50 values of compounds for GPR139, HEK293 cells transfected with GPR139. The method, then: HEK293 cells were grown in a 10 cm culture dish containing DMEM complete medium (containing glutamine, sodium pyruvate, penicillin/streptomycin, 10% fetal bovine serum) and incubated at 37° C. in a 5% CO2 incubator until 90% confluency. Then subculture twice a week at a ratio of 1:5. During cell passaging, the culture medium was first completely removed, washed once with 4 mL of DPBS, and then 3 mL of trypsin digestion solution was added and mixed well. When cell dissociation was observed, the trypsin solution was aspirated and 5 mL of complete DMEM medium was added. The cells were dispersed by pipetting, and 1 mL of cell suspension was added to each of five new 10 cm culture dishes. Then, 7 mL of complete DMEM medium was supplemented to each dish. After mixing, the cells were cultured at 37° C. in a 5% CO2 incubator.
On the transfection day, cells were digested and seeded into one 10 cm culture dish at appropriate density. […]
On the third day, 10 μL/well of FLIPR dye (diluted in HEPES solution containing Pluronic and Probenecid) was added to the 384-well cell plate. […] Diluted compounds were added to the cell plate and calcium signals were measured using a FLIPR plate reader.
Data were analyzed using XL-fit software to obtain EC50 values for each compound.

Take `C[C@H](NC(=O)[C@H](CO)NC(=O)c1cccc(F)c1)c1ccccc1F`: the EC50 fell in the range of 100 to 1000 nM.

Broadly, the EC50 is the concentration that produces a half-maximal response.
